Data from ChEMBL document CHEMBL6114984, “Discovery of 2,4-diaminopyrimidine derivatives as potent inhibitors of FAK capable of activating the Hippo pathway for the treatment of esophageal squamous cell carcinoma” (Eur J Med Chem, 2025).

How the values were obtained:
KYSE-30 = experiment: Induction of cell senescence in human KYSE-30 cells at 400 nmol/L; assay type: functional, cell-based
KYSE-450 = experiment: Induction of cell senescence in human KYSE-450 cells at 400 nmol/L; assay type: functional, cell-based

CNC(=O)c1ccccc1Nc1nc(Nc2ccc(N3CCOCC3)cc2OC)ncc1Cl
Activity (KYSE-30): inactive | Activity (KYSE-450): inactive

Activity calls are given as the source filed them. No cut-off for these calls is given here.
